{
  "source": "patent US20250319032A1",
  "about": "“PHARMACEUTICAL COMPOSITIONS OF RIBOCICLIB” (Novartis AG, priority 2024, published 2025)",
  "test": "Validation of the HPLC-HRMS method for N-nitroso-ribociclib (precision, accuracy, linearity, LOQ, stability of standard and sample solutions)",
  "experimental": "The method was validated in the range 0.0625 ppm to 12.5 ppm N-nitroso-ribociclib (NRR) with regard to ribociclib free base. For the purpose of this validation only, the 100% target limit was set at 3.75 ppm (1500 ng NRR/400 mg ribociclib free base).\nSix replicates of the “Sample solution” were prepared according to the procedure described above and tested on the same day. The results are expressed as ppm of NNR with regard to ribociclib free base (μg NNR/g ribociclib free base)\nTwo series of six replicates of the “Sample solutions” were prepared according to the procedure described above and tested by two different analysts, on two different days, using different LC/MS systems and different columns. The results are expressed as ppm of NNR with regard to ribociclib free base (μg NNR/g ribociclib free base)\nThree replicates of calibration standard solutions L1 (c=0.5 ng/ml) and L6 (c=100 ng/ml) were prepared according to the procedure described above. Solutions were stored in the dark at room temperature (autosampler (AS) vials). After a period of time, the solutions were reanalyzed. The stability of standard solutions is evaluated by determining the relative difference between the responses […] The results are expressed as concentration in ng/ml, determined from calibration curve in each sequence (time point).\nThree replicates of Sample solution were prepared according to AP. The replicates were analysed at t=0 h and after app. […] The results are expressed as ppm of NNR wrt ribociclib free base. […]\nIn addition, FCT samples stored in flasks on the bench were filtered at defined time point and analysed. […]\nSample solutions were prepare according to the procedure described above using 10 mL, 25 mL and 50 mL flasks, three replicates for each volume. […] The results are expressed as ppm of NNR with regard to ribociclib free base (μg NNR/g ribociclib free base) […]\nAmount of NNR present in the unspiked sample was subtracted (see above) and RSD of corrected amounts calculated.",
  "data": [
    {"smiles": "CN(C)C(=O)c1cc2cnc(Nc3ccc(N4CCNCC4)cn3)nc2n1C1CCCC1.O=C(O)CCC(=O)O", "note": "[Ribociclib succinate drug substance]", "values": [
      {"measurement": "NNR in sample solution, Average (ppm)", "setting": "0 h, AS at room temperature", "value": 0.239, "unit": "ppm"},
      {"measurement": "NNR in sample solution, single replicate", "setting": "24 h, AS at room temperature", "value": 0.227, "unit": "ppm"}
    ]},
    {"smiles": "CN(C)C(=O)c1cc2cnc(Nc3ccc(N4CCNCC4)cn3)nc2n1C1CCCC1.O=C(O)CCC(=O)O", "note": "[ribociclib succinate drug substance]", "values": [
      {"measurement": "NNR (ppm), Intraday precision, single replicate", "setting": "sample solution, replicates R1-R6, wrt ribociclib free base", "value": 0.239, "unit": "ppm"}
    ]}
  ]
}
